# Reported water solubility values for industrial, environmental and drug-like chemicals

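OPERA's authors assembled the values from existing databases and did not measure them anew. One number stands for a compound and property, with no spread given. Method, purity and exact conditions of the single measurements are not given. A value may pool stereoisomers or salt forms, and the file does not say which form was measured. Some entries may be limits or estimates that an upstream database listed as plain numbers.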

Water solubility is log10 of mol/L, nominally at 25 °C; higher is more soluble.

| structure (SMILES) | log S (log10 mol/L) |
|---|---|
| COc1cc([C@@H]2c3cc4c(cc3[C@@H](O[C@@H]3O[C@@H]5CO[C@@H](c6cccs6)O[C@H]5[C@H](O)[C@H]3O)[C@H]3COC(=O)[C@H]23)OCO4)cc(OC)c1O | -4.041 |
| C#C[C@]1(O)CC[C@H]2[C@@H]3CCC4=CC(=O)CC[C@@H]4[C@H]3C(=C)C[C@@]21CC | -4.644 |
| CC(C)(C)S(=O)(=O)C[C@@H](Cc1ccccc1)C(=O)N[C@@H](Cc1cnc[nH]1)C(=O)N[C@@H](CC1CCCCC1)[C@@H](O)[C@@H](O)C1CC1 | -4.472 |
| CCCC(=O)OCOC(=O)c1ccccc1OC(C)=O | -2.904 |
| Cl.Cl.NCCCNc1ccc2c3c(c4c(c(O)c13)C(=O)C=CC4=O)NN2CCNCCO | -2.834 |
| CC(=CC(=O)O)SC(C)=CC(=O)O | -2.306 |
| CCCC(CC)(CCC)C(=O)[O-].CCCC(CC)(CCC)C(=O)[O-].CCCC(CC)(CCC)C(=O)[O-].[Cr+3] | -6.85 |
| OCCC(F)(F)C(F)(F)C(F)(F)C(F)(F)C(F)(F)C(F)(F)C(F)(F)C(F)(F)F | -6.388 |
| C[C@H](CCC(=O)O)[C@H]1CC[C@H]2[C@@H]3C[C@H](O)[C@@H]4C[C@H](O)CC[C@]4(C)[C@H]3CC[C@]12C | -3.82 |
| O=S(=O)(O)c1cscn1 | 0.36 |
| C=CCN1CCCC1CNC(=O)c1cc2n[nH]nc2cc1OC (centres undefined) | -2.804 |
| OCC(O)=Nc1ccccc1 | -0.447 |
| CC1(C)OC(=O)CC1C(=O)O (centres undefined) | -1.24 |
| CN(O)/N=N/c1ccccc1 | -1.526 |
| CC(C)(C)c1ccc(OC(=O)c2cc(C(C)(C)C)c(O)c(C(C)(C)C)c2)c(C2C(=O)Oc3ccc(C(C)(C)C)cc32)c1 (centres undefined) | -8.849 |
| NC(=O)NC1(N)NC(=O)N=C1N (centres undefined) | -1.838 |
| NC(=O)CCC(N)=O | -1.546 |
| CCCC(C)COC(=O)C(C)CCC (centres undefined) | -4.639 |
| CC(=O)C(N=Nc1ccc(C(=O)Nc2ccc(C(N)=O)cc2)cc1)C(=O)Nc1ccc2[nH]c(=O)[nH]c2c1 (centres undefined) | -6.673 |
| CC1=C2[C@@H](O)[C@@H]3[C@H](C)C(=O)O[C@@H]3C[C@H](C)[C@H]2CC1=O | -1.945 |
| CNCCC=C1c2ccccc2CCc2ccccc21 | -5.479 |
| CN(C)S(=O)(=O)c1ccc2c(c1)N(CCCN1CCC(CCO)CC1)c1ccccc1S2 | -4.573 |
| Cc1cc(O)n(CCC(=O)O)c(=O)c1C#N | -1.444 |
| CC(=O)Nc1cccc(C(F)(F)F)c1 | -2.87 |
| Cc1ccc(S(=O)(=O)NCC(=O)O)cc1 | -1.443 |
| N=c1oc(=N)oc(=N)o1 | -3.111 |
| Cc1ccc2c(c1)[C@H](Nc1nc(N)nc(C(C)F)n1)[C@@H](C)C2 (stereo partly specified) | -5.03 |
| Cc1cc(C(=O)NNCc2ccccc2)no1 | -2.461 |
| CC(=O)Nc1cccc(Cl)c1 | -2.28 |
| CC(=O)c1cccc(O)c1 | -1.534 |
| CC(=O)OCC(=O)[C@@]12OC(C)(C)O[C@@H]1C[C@H]1[C@@H]3C[C@H](F)C4=CC(=O)C=C[C@]4(C)[C@@]3(F)[C@@H](O)C[C@@]12C | -4.469 |
| C=CCCCCCCCCCOC(=O)C(C#N)=C(c1ccccc1)c1ccccc1 | -8.663 |
| CC(=O)OC(OC(C)=O)C(OC(C)=O)OC(C)=O | -2.096 |
| Nc1ccc2c(O)cc(S(=O)(=O)O)cc2c1 | -2.728 |
| N[C@H](C(=O)O)[C@H](O)c1ccc(O)c(O)c1 | -1.144 |
| Nc1cc([N+](=O)[O-])cc(Cl)c1O | -2.622 |
| Oc1ccc(N=Nc2ccc(N=Nc3ccccc3)cc2)cc1 | -9.699 |
| CCCCOC(CC)OC(C)COC(O)CC (centres undefined) | -0.804 |
| CCCCCCCCCCCCCCCCCCN(CCO)CCO | -5.775 |
| C/C=N/NC(N)=O | -0.542 |
| Cc1cc(/N=N/c2c(O)ccc3ccccc23)c(S(=O)(=O)[O-])cc1Cl.Cc1cc(/N=N/c2c(O)ccc3ccccc23)c(S(=O)(=O)[O-])cc1Cl.[Ba+2] | -5.688 |

A selection of 7 entries from above:

| structure (SMILES) | log S (log10 mol/L) |
|---|---|
| CNCCC=C1c2ccccc2CCc2ccccc21 | -5.479 |
| CCCC(=O)OCOC(=O)c1ccccc1OC(C)=O | -2.904 |
| OCC(O)=Nc1ccccc1 | -0.447 |
| C=CCN1CCCC1CNC(=O)c1cc2n[nH]nc2cc1OC (centres undefined) | -2.804 |
| CC(=O)C(N=Nc1ccc(C(=O)Nc2ccc(C(N)=O)cc2)cc1)C(=O)Nc1ccc2[nH]c(=O)[nH]c2c1 (centres undefined) | -6.673 |
| CC(=O)Nc1cccc(Cl)c1 | -2.28 |
| Cc1cc(C(=O)NNCc2ccccc2)no1 | -2.461 |

Values as listed in the OPERA 2.9 repository of K. Mansouri.